Permeability data for macrocyclic peptides

Data: CycPeptMPDB; original report Furukawa et al. 2016, doi:10.1021/acs.jmedchem.6b01246.

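Lipid, pH, incubation time, direction and concentration are not recorded in the data file. Other peptides of the study may be missing here. Entries at the database's floor value (log10 P of -10) are not listed.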

PAMPA is the parallel artificial membrane permeability assay, which has no cells and reads passive diffusion.
Permeability is in 10^-6 cm/s, converted from the database's log10 values; higher is more permeable.

compound | PAMPA (10^-6 cm/s)
CCCC[C@@H]1NC(=O)[C@H](CC(C)C)N(C)C(=O)CN(CCOC)C(=O)[C@H](Cc2ccc3ccccc3c2)NC(=O)CN(CCC)C(=O)[C@H]2CCCN2C1=O | 4.6
CCCC[C@@H]1NC(=O)[C@H](CC(C)C)N(C)C(=O)CN(CCCc2cnn(C)c2)C(=O)[C@H](Cc2ccccc2)NC(=O)CN(CCCOC(C)C)C(=O)[C@H]2CCCN2C1=O | 4.7
CCCC[C@@H]1NC(=O)[C@H](CC(C)C)N(C)C(=O)CN(CCc2cccnc2)C(=O)[C@H](CC(C)C)NC(=O)CN(CC)C(=O)[C@H]2CCCN2C1=O | 0.72
CCCC[C@@H]1NC(=O)[C@H](CC(C)C)N(C)C(=O)CN(CCOC)C(=O)[C@H](CC(C)C)NC(=O)CN(CC(C)C)C(=O)[C@H]2CCCN2C1=O | 9.8
CCCC[C@@H]1NC(=O)[C@H](CC(C)C)N(C)C(=O)CN(CCCc2ccccc2)C(=O)[C@H](CC(C)C)NC(=O)CN(CCC)C(=O)[C@H]2CCCN2C1=O | 2.7
CCCC[C@@H]1NC(=O)[C@H](CC(C)C)N(C)C(=O)CN(CC2CCCCC2)C(=O)[C@H](Cc2ccc3ccccc3c2)NC(=O)CN(CCCOC(C)C)C(=O)[C@H]2CCCN2C1=O | 0.1
CCCC[C@@H]1NC(=O)[C@H](CC(C)C)N(C)C(=O)CN(CCOC)C(=O)[C@H](Cc2ccccc2)NC(=O)CN(CCN2CCOCC2)C(=O)[C@H]2CCCN2C1=O | 0.42
CCCCCN1CC(=O)N(C)[C@@H](CC(C)C)C(=O)N[C@@H](CCCC)C(=O)N2CCC[C@@H]2C(=O)N(CCN2CCOCC2)CC(=O)N[C@@H](C)C1=O | 0.38
CCCC[C@@H]1NC(=O)[C@H](CC(C)C)N(C)C(=O)CN(CCc2cccnc2)C(=O)[C@H](CC(C)C)NC(=O)CN(CCC)C(=O)[C@H]2CCCN2C1=O | 2.4
CCCC[C@@H]1NC(=O)[C@H](CC(C)C)N(C)C(=O)CN(CCCc2ccccc2)C(=O)[C@H](C)NC(=O)CN(CC)C(=O)[C@H]2CCCN2C1=O | 6.9
CCCC[C@@H]1NC(=O)[C@H](CC(C)C)N(C)C(=O)CN(CCOC)C(=O)[C@H](CC(C)C)NC(=O)CN(Cc2ccccc2Cn2cccn2)C(=O)[C@H]2CCCN2C1=O | 5.9
CCCC[C@@H]1NC(=O)[C@H](CC(C)C)N(C)C(=O)CN(CCCc2ccccc2)C(=O)[C@H](Cc2ccccc2)NC(=O)CN(CCCOC(C)C)C(=O)[C@H]2CCCN2C1=O | 1.4
CCCC[C@@H]1NC(=O)[C@H](CC(C)C)N(C)C(=O)CN(CCCc2cnn(C)c2)C(=O)[C@H](Cc2ccccc2)NC(=O)CN(CC)C(=O)[C@H]2CCCN2C1=O | 2
CCCC[C@@H]1NC(=O)[C@H](CC(C)C)N(C)C(=O)CN(CCc2cccnc2)C(=O)[C@H](Cc2ccccc2)NC(=O)CN(CCCCc2ccccc2)C(=O)[C@H]2CCCN2C1=O | 0.4
CCCCCN1CC(=O)N(C)[C@@H](CC(C)C)C(=O)N[C@@H](CCCC)C(=O)N2CCC[C@@H]2C(=O)N(CCCOC(C)C)CC(=O)N[C@@H](Cc2ccc3ccccc3c2)C1=O | 0.065
CCCC[C@@H]1NC(=O)[C@H](CC(C)C)N(C)C(=O)CN(CCCc2cnn(C)c2)C(=O)[C@H](Cc2ccccc2)NC(=O)CN(CCN2CCOCC2)C(=O)[C@H]2CCCN2C1=O | 0.23
CCCC[C@@H]1NC(=O)[C@H](CC(C)C)N(C)C(=O)CN(CCCc2cnn(C)c2)C(=O)[C@H](CC(C)C)NC(=O)CN(CCN2CCOCC2)C(=O)[C@H]2CCCN2C1=O | 0.091
CCCC[C@@H]1NC(=O)[C@H](CC(C)C)N(C)C(=O)CN(CCCc2ccccc2)C(=O)[C@H](Cc2ccccc2)NC(=O)CN(Cc2ccc3c(c2)OCO3)C(=O)[C@H]2CCCN2C1=O | 0.0098
CCCC[C@@H]1NC(=O)[C@H](CC(C)C)N(C)C(=O)CN(CCOC)C(=O)[C@H](Cc2ccccc2)NC(=O)CN(CC)C(=O)[C@H]2CCCN2C1=O | 4
CCCC[C@@H]1NC(=O)[C@H](CC(C)C)N(C)C(=O)CN(CCCc2ccccc2)C(=O)[C@H](Cc2ccccc2)NC(=O)CN(CCN2CCOCC2)C(=O)[C@H]2CCCN2C1=O | 3.2
CCCC[C@@H]1NC(=O)[C@H](CC(C)C)N(C)C(=O)CN(Cc2ccccc2)C(=O)[C@H](C)NC(=O)CN(CCCOC(C)C)C(=O)[C@H]2CCCN2C1=O | 11

The last 4 entries again:

| compound | PAMPA (10^-6 cm/s) |
|---|---|
| CCCC[C@@H]1NC(=O)[C@H](CC(C)C)N(C)C(=O)CN(CCCc2ccccc2)C(=O)[C@H](Cc2ccccc2)NC(=O)CN(Cc2ccc3c(c2)OCO3)C(=O)[C@H]2CCCN2C1=O | 0.0098 |
| CCCC[C@@H]1NC(=O)[C@H](CC(C)C)N(C)C(=O)CN(CCOC)C(=O)[C@H](Cc2ccccc2)NC(=O)CN(CC)C(=O)[C@H]2CCCN2C1=O | 4 |
| CCCC[C@@H]1NC(=O)[C@H](CC(C)C)N(C)C(=O)CN(CCCc2ccccc2)C(=O)[C@H](Cc2ccccc2)NC(=O)CN(CCN2CCOCC2)C(=O)[C@H]2CCCN2C1=O | 3.2 |
| CCCC[C@@H]1NC(=O)[C@H](CC(C)C)N(C)C(=O)CN(Cc2ccccc2)C(=O)[C@H](C)NC(=O)CN(CCCOC(C)C)C(=O)[C@H]2CCCN2C1=O | 11 |